Experimental data as given in PMC12831531 (Cell reports, 2025).

T1: t-gp68 (truncated gp68 ectodomain, soluble) (HCMV AD169)
T1 chain: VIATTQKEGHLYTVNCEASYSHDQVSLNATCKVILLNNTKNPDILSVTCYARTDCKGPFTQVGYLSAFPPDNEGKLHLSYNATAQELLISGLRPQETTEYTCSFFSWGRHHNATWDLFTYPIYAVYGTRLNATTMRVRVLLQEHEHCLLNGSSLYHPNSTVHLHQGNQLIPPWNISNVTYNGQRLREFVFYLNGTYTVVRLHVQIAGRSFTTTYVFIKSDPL


Key:
[1] = molecular target: T1, t-gp68 (truncated gp68 ectodomain, …); assay: ELISA; antibody coated at 4 μg/mL; FLAG-labeled t-gp68, gp34-M, CD16A-GST or FcRn-GST diluted 5-fold from 450 nM in 5% milk PBST; anti-FLAG-M2-HRP; settings: both partners purified
[2] = molecular target: T1, t-gp68 (truncated gp68 ectodomain, …); assay: flow cytometry on cells; soluble t-gp68 (2 μM) and/or gp34-M (0.1 μM) with 67 nM antibody in solution, read as loss of antibody staining of AD169-infected MRC5 cells on ice; settings: both partners purified

Binder	binding result [1]	binding result [2]
SM5–1 human IgG1 antibody with Fc variant R255Q (antibody, V domains shown, SM5-1 VH, as the heavy chain of m25 (the ELISA methods name hu4D5 Fab arms instead); human IgG1 heavy-chain constant region (CH1, hinge, CH2, CH3); EU number minus 117 is the position in P01857; SM5-1 VL, as the light chain of m25 (the ELISA methods name hu4D5 Fab arms instead); human kappa constant domain; IgG1; source: ExpiCHO, purified (Protein A)) VH: QVQLVQSGAEVRKPGASVKVSCKASGYSLKDHYMVWVRQAPGQGLEWMGWINPQSGGTGYGQKFQGRVTMTRDTSTNTAYMILSSLRSDDTAVYFCARDGAKTVSNSGLSLLYYHNRLDAWGQGTMVTVSS VL: QSVLTQPPSVSAAPGQMVTISCSGSSSNIGKNYVSWYQQLPGAAPKLLIFDNNKRPSGTPDRFSGSKSGTSATLVITGLQTGDEADYYCGTPDRSLSVIFGGGTKVTVL	binds	
SM5–1 human IgG1 antibody with wild-type Fc (antibody, V domains shown, also called SM5–1 WT; human SM5–1; source: ExpiCHO, purified (Protein A)) VH: QVQLVQSGAEVRKPGASVKVSCKASGYSLKDHYMVWVRQAPGQGLEWMGWINPQSGGTGYGQKFQGRVTMTRDTSTNTAYMILSSLRSDDTAVYFCARDGAKTVSNSGLSLLYYHNRLDAWGQGTMVTVSS VL: QSVLTQPPSVSAAPGQMVTISCSGSSSNIGKNYVSWYQQLPGAAPKLLIFDNNKRPSGTPDRFSGSKSGTSATLVITGLQTGDEADYYCGTPDRSLSVIFGGGTKVTVL		binds
